EP4831180A1, “NOVEL KINASE INHIBITOR” (dated 2026)

Amino acid sequences for entries named in this document (tags omitted). Residues count along the entry.
UniProt Q9UM73, 19-1620 I1171N/D1203N limits assumed: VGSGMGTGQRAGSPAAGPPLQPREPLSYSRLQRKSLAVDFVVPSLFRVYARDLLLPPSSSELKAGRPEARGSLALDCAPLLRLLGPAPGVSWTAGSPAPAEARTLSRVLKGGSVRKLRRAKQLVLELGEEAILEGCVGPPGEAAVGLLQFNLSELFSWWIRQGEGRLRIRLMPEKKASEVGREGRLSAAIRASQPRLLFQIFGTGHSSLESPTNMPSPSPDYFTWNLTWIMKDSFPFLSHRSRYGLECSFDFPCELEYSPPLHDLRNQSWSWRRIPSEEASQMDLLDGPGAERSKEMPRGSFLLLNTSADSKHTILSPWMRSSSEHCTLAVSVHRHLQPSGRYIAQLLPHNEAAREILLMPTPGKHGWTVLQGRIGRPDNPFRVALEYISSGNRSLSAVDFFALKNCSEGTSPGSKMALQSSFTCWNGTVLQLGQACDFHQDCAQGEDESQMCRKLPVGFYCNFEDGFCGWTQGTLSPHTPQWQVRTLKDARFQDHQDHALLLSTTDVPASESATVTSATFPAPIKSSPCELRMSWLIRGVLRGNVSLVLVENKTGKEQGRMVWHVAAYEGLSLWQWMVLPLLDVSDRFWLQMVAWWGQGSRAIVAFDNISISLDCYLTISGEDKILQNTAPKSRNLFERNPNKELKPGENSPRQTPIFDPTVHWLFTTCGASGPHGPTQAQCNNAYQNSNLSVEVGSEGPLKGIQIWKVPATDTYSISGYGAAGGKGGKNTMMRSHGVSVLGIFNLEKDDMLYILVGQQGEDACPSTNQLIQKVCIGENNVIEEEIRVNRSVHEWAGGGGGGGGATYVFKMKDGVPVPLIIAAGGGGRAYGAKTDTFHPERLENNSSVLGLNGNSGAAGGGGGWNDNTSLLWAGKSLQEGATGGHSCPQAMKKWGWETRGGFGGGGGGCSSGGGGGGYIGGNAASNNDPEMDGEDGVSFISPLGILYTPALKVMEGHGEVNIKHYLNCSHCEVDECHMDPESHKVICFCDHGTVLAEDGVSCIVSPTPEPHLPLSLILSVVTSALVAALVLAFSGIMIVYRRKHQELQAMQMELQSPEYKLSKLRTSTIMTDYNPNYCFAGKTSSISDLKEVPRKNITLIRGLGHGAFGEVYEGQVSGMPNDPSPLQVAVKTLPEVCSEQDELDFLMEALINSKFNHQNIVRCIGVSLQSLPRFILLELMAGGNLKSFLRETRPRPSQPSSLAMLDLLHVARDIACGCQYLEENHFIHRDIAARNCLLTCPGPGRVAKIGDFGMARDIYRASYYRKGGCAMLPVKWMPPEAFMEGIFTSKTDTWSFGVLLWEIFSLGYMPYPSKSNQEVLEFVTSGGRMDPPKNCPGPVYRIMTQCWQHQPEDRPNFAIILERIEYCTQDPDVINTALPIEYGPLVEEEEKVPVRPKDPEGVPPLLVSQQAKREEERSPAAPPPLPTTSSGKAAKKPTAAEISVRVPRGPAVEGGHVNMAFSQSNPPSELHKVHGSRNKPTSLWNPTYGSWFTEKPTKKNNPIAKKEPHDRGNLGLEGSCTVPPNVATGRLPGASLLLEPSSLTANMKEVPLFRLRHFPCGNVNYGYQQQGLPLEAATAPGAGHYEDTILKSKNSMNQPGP
UniProt Q9UM73, 19-1620 L1196M/G1202R limits assumed: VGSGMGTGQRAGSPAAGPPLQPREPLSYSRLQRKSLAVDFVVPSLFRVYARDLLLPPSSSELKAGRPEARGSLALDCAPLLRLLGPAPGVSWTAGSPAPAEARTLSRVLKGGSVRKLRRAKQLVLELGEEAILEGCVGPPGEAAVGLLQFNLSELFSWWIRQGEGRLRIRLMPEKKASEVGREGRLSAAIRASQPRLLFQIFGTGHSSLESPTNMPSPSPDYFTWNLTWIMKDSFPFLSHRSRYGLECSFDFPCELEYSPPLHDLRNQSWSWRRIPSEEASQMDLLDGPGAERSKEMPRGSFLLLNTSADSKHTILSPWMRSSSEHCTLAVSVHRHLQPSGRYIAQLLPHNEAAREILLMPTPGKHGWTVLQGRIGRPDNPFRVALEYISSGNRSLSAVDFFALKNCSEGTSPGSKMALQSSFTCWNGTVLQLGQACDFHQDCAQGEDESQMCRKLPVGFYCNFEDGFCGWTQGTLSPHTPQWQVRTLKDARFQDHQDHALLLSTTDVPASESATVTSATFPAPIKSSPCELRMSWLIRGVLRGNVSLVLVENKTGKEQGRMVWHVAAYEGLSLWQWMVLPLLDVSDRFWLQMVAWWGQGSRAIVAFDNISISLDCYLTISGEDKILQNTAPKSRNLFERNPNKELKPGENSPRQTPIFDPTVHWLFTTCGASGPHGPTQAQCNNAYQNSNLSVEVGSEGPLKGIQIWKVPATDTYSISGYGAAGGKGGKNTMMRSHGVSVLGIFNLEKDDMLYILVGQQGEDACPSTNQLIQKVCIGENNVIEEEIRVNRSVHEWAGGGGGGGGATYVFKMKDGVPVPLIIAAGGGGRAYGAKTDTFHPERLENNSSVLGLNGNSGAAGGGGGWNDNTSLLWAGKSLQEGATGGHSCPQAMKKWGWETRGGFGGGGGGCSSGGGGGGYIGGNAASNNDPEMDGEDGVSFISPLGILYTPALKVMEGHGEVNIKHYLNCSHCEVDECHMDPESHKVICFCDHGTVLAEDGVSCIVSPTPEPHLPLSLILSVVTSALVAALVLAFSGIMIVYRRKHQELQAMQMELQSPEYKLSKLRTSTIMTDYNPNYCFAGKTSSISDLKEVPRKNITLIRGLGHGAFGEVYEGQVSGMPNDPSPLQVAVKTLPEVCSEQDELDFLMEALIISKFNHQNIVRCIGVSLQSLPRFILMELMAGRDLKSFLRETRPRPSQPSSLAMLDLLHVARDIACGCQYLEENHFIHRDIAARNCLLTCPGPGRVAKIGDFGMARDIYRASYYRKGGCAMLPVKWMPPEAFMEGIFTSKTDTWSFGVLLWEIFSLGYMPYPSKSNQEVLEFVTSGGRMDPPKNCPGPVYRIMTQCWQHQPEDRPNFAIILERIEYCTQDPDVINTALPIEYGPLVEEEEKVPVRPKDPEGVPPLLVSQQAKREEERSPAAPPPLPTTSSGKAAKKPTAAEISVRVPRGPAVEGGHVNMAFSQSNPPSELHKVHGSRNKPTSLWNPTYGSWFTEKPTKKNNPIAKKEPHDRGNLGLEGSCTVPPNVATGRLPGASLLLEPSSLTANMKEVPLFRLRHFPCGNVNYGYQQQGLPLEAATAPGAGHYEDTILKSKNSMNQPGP

What was measured:
[1] = system: Baf3 EML4-ALK V1^G1202R/L1196M cells; conditions: read-out: BaF3 EML4-ALK^G1102R/L1196M, IC50; 3 days incubation, Cell-Titer Glo
[2] = system: Baf3 EML4-ALK V1^I1171N/D1203N cells; conditions: read-out: BaF3 EML4-ALK^I1171N/D1203N IC50; 3 days incubation, Cell-Titer Glo
[3] = Body weight in the xenograft model study; conditions: PO, 1 mg/kg, BID
[4] = Pharmacokinetics in rats after single oral gavage dose; conditions: male SD rats, single oral gavage 5 mg/kg, plasma
[5] = system: Ba/F3 EML4-ALK^G1202R/L1196M mutant cells; assay: In vivo efficacy in ALK mutant cell line xenograft model; conditions: PO, 1 mg/kg, BID
His-ALK^G1202R/L1196M = His-ALK^G1202R/L1196M (Homo sapiens, UniProt Q9UM73, G1202R/L1196M); assay: ALK G1202R/L1196M compound mutant kinase inhibitory activity assay (HTRF); conditions: read-out: ALK^G1202R/L1196M Enzyme, IC50, ATP 4 µM, enzyme 0.5 nM, 1 hour at 23 °C
His-ALK^I1171N/D1203N = His-ALK^I1171N/D1203N (Homo sapiens, UniProt Q9UM73, D1203N/I1171N); assay: ALK I1171N/D1203N compound mutant kinase inhibitory activity assay (HTRF); conditions: read-out: ALK^I1171N/D1203N Enzyme, IC50, ATP 1 µM, enzyme 0.3 nM, 1 hour at 23 °C

For `CCn1nc(N=S2(=O)CCC2)c2c1-c1cnc(N)c(c1)O[C@H](C)c1cc(F)ccc1-c1nn(C)cc1C2`, the IC50 [1] was < 10 nM, the IC50 [2] was < 10 nM and the “Body Weight Change (% of vehicle) Day 2” value [3] was 99.0 % of vehicle. The “Body Weight Change (% of vehicle) Day 4” value [3] was 98.9 % of vehicle, the “Body Weight Change (% of vehicle) Day 7” value [3] was 97.1 % of vehicle and the “Body Weight Change (% of vehicle) Day 11” value [3] was 97.5 % of vehicle. The “AUC0-inf” value [4] was 15504 ng·h/mL, the “Cmax” value [4] was 1859 ng/mL and the “T1/2” value [4] was 4.16 h. For the same molecule, the “Tmax” value [4] was 3.67 h, the “TGI (%) Day 2” value [5] was 71.6% and the “TGI (%) Day 4” value [5] was 88.7%. The “TGI (%) Day 7” value [5] was 92.6%, the “TGI (%) Day 11” value [5] was 93.1% and the IC50 (His-ALK^G1202R/L1196M) was < 5 nM. The IC50 (His-ALK^I1171N/D1203N) was < 5 nM.
In the case of `C#Cc1nn(CC)c2c1Cc1cccnc1-c1ccc(F)cc1[C@@H](C)Oc1cc-2cnc1N`, the IC50 [1] is reported as < 10 nM, the IC50 [2] is reported as < 10 nM and the “AUC0-inf” value [4] is reported as 8619 ng·h/mL. The “Cmax” value [4] was 1425 ng/mL, the “T1/2” value [4] was 3.81 h and the “Tmax” value [4] was 0.833 h. For the same molecule, the IC50 (His-ALK^G1202R/L1196M) was < 5 nM and the IC50 (His-ALK^I1171N/D1203N) was < 5 nM.
For `CCn1nc(C#Cc2ccccn2)c2c1-c1cnc(N)c(c1)O[C@H](C)c1cc(F)ccc1-c1nn(C)cc1C2`, the IC50 [1] was < 10 nM, the IC50 [2] was < 10 nM and the “Body Weight Change (% of vehicle) Day 2” value [3] was 99.3 % of vehicle. For the same molecule, the “Body Weight Change (% of vehicle) Day 4” value [3] was 99.1 % of vehicle, the “Body Weight Change (% of vehicle) Day 7” value [3] was 92.6 % of vehicle and the “Body Weight Change (% of vehicle) Day 11” value [3] was 91.8 % of vehicle. The “AUC0-inf” value [4] was 31917 ng·h/mL, the “Cmax” value [4] was 2753 ng/mL and the “T1/2” value [4] was 2.89 h. The “Tmax” value [4] was 3.00 h, the “TGI (%) Day 2” value [5] was 84.9% and the “TGI (%) Day 4” value [5] was 93.0%. For the same molecule, the “TGI (%) Day 7” value [5] was 95.1%, the “TGI (%) Day 11” value [5] was 93.4% and the IC50 (His-ALK^G1202R/L1196M) was < 5 nM. For the same molecule, the IC50 (His-ALK^I1171N/D1203N) was < 5 nM.
With `CCn1nc(N=S(=O)(CC)CC)c2c1-c1cnc(N)c(c1)O[C@H](C)c1cc(F)ccc1-c1nn(C)cc1C2` the IC50 [1] was < 10 nM, the IC50 [2] was < 10 nM and the “AUC0-inf” value [4] was 11143 ng·h/mL. The “Cmax” value [4] was 3146 ng/mL, the “T1/2” value [4] was 2.75 h and the “Tmax” value [4] was 0.33 h. For the same molecule, the IC50 (His-ALK^G1202R/L1196M) was < 5 nM and the IC50 (His-ALK^I1171N/D1203N) was < 5 nM.
With `C#Cc1nn(CC)c2c1Cc1cn(C)nc1-c1ccc(F)cc1[C@@H](C)Oc1cc-2cnc1N` the IC50 [1] was < 10 nM, the IC50 [2] was < 10 nM and the “Body Weight Change (% of vehicle) Day 2” value [3] was 100.2 % of vehicle. For the same molecule, the “Body Weight Change (% of vehicle) Day 4” value [3] was 96.9 % of vehicle, the “Body Weight Change (% of vehicle) Day 7” value [3] was 93.6 % of vehicle and the “Body Weight Change (% of vehicle) Day 11” value [3] was 94.8 % of vehicle. For the same molecule, the “AUC0-inf” value [4] was 10721 ng·h/mL, the “Cmax” value [4] was 1596 ng/mL and the “T1/2” value [4] was 3.00 h. For the same molecule, the “Tmax” value [4] was 0.50 h, the “TGI (%) Day 2” value [5] was 71.1% and the “TGI (%) Day 4” value [5] was 78.4%. For the same molecule, the “TGI (%) Day 7” value [5] was 84.0%, the “TGI (%) Day 11” value [5] was 92.8% and the IC50 (His-ALK^G1202R/L1196M) was < 5 nM. The IC50 (His-ALK^I1171N/D1203N) was < 5 nM.
